This assay has as its target Sigma intracellular receptor 2 (Homo sapiens, UniProt Q5BJF2). As to the kind of experiment: Binding affinity to sigma-2 receptor (unknown origin). In short, it runs like this:
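Rat liver membrane homogenate (male Sprague-Dawley, 300-350 g; 300 µg) incubated with 5.65 nM [3H]DTG stock (~82 Ci/mmol) plus (+)-pentazocine (100 nM stock) masking sigma-1, 50 mM Tris-HCl pH 8.0, 25 °C, 120 min. Compounds from ethanol, 0.1-1000 nM, 10 points. Ice-cold 10 mM Tris termination, GF/B filtration, scintillation counting. Nonspecific: 5 µM DTG. IC50 by nonlinear regression, Ki via Cheng-Prusoff; ≥3 experiments, mean (SEM).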

Sequences of proteins named here, by UniProt entry; tags and fusion partners are left off.
UniProt Q5BJF2, whole entry: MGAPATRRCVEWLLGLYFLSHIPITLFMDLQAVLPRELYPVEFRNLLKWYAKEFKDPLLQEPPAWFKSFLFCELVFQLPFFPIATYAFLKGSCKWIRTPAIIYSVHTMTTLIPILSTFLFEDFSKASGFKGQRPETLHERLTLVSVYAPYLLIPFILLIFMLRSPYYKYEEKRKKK

In general, Ki refers to the dissociation constant of the complex between target and ligand, obtained from inhibition or displacement. A low value points to a stronger hold on the target.

As to `COc1cccc2c1CCCC2CCCN1CCN(C2CCCCC2)CC1` (stereo unspecified), the affinity, expressed as Ki, was 0.34 nM.

These data come from ChEMBL document CHEMBL4145543, “Synthesis and pharmacological evaluation of 6,7-dimethoxy-1,2,3,4-tetrahydroisoquinoline derivatives as sigma-2 receptor ligands” (Eur J Med Chem, 2018).
